Values belong to the binder of their own block, whether it stands above or below them.
Experiments:
[1] = target: H3K4me3 nucleosome (homotypic, PTM-defined) (UniProt P68431 1-136; P62805 1-103; P04908 1-130; O60814 1-126, trimethyl-lysine at K4)
[2] = target: H3K4me3K9acK14acK18ac nucleosome (homotypic, PTM-defined) (UniProt P68431 1-136; P62805 1-103; P04908 1-130; O60814 1-126, trimethyl-lysine at K4; acetyl-lysine at K9, K14, K18)

EC50 [1]: 16.3 nM
EC50 [2]: 5.3 nM
B1: GST-KDM7A PHD (residues 1-100) (domain or fragment)
chain: MAGAAAAVAAGAAAGAAAAAVSVAAPGRASAPPPPPPVYCVCRQPYDVNRFMIECDICKDWFHGSCVGVEEHHAVDIDLYHCPNCAVLHGSSLMKKRRNW

EC50 [2]: 11.7 nM
B2: GST-MLL5 PHD (residues 100-180) (domain or fragment)
chain: TSSATTISTSEDGSYGTDVTRCICGFTHDDGYMICCDKCSVWQHIDCMGIDRQHIPDTYLCERCQPRNLDKERAVLLQRRK

EC50 [1]: 4 nM
EC50 [2]: 1.2 nM
B3: GST-DIDO1 PHD (residues 250-340) (domain or fragment)
chain: EPGDLGRPKPECEGYDPNALYCICRQPHNNRFMICCDRCEEWFHGDCVGISEARGRLLERNGEDYICPNCTILQVQDETHSETADQQEAKW

— publication PMC10229121 (2023)
